Values of other authors, collected in patent US10259846B2, “Bouvardin derivatives and therapeutic uses thereof” (The Regents of the University of Colorado, a body corporate, priority 2012, dated 2019).

Details: with radiation (Raben et al., 2005); cited from earlier work

## Cetuximab
  CI values with radiation: ~0.5
